Experimental data published in the supplement of paper PMC13380429.

What was measured:
Details in all cases: 72 h
U2OS [1] = assay: cell viability relative to DMSO; higher = less toxic
HepG2 [2] = assay: as above
Calu-3 [3] = assay: as above
Caco-2 [4] = assay: as above
U2OS [5] = assay: relative viability EC50 (midpoint between 100% and the lowest measured viability); higher = less toxic
HepG2 [6] = assay: as above
Caco-2 [7] = assay: as above
U2OS [8] = assay: drug sensitivity score (DSS) for viability; higher = more toxic; extreme values may be limits of the assay
HepG2 [9] = assay: as above
Calu-3 [10] = assay: as above
Caco-2 [11] = assay: as above

N/C(=N/CCc1ccc(I)cc1)SCCCc1cnc[nH]1 [iodophenpropit]
cell viability (U2OS [1]; 1 nM): 99.9% | cell viability (U2OS [1]; 10 nM): 94.4% | cell viability (U2OS [1]; 100 nM): 102% | cell viability (U2OS [1]; 1000 nM): 97.9% | cell viability (U2OS [1]; 10000 nM): 86.1% | cell viability (HepG2 [2]; 1 nM): 103% | cell viability (HepG2 [2]; 10 nM): 109% | cell viability (HepG2 [2]; 100 nM): 99.1% | cell viability (HepG2 [2]; 1000 nM): 101% | cell viability (HepG2 [2]; 10000 nM): 48.2% | cell viability (Calu-3 [3]; 1 nM): 94.7% | cell viability (Calu-3 [3]; 10 nM): 103% | cell viability (Calu-3 [3]; 100 nM): 100% | cell viability (Calu-3 [3]; 1000 nM): 102% | cell viability (Calu-3 [3]; 10000 nM): 69.3% | cell viability (Caco-2 [4]; 1 nM): 100% | cell viability (Caco-2 [4]; 10 nM): 99.1% | cell viability (Caco-2 [4]; 100 nM): 99.6% | cell viability (Caco-2 [4]; 1000 nM): 95.4% | cell viability (Caco-2 [4]; 10000 nM): 99% | relative viability EC50 (U2OS [5]): > 10 µM | relative viability EC50 (HepG2 [6]): 3.29 µM | relative viability EC50 (Caco-2 [7]): > 10 µM | drug sensitivity score (U2OS [8]): 0.3 | drug sensitivity score (HepG2 [9]): 2.6 | drug sensitivity score (Calu-3 [10]): 1.2 | drug sensitivity score (Caco-2 [11]): 0
